Experimental data as given in PMC4122355, “Inhibitor of the Tyrosine Phosphatase STEP Reverses Cognitive Deficits in a Mouse Model of Alzheimer's Disease” (PLoS Biology, 2014).

Chains of the proteins cited; added tags and fusions are not shown. Residues count along the entry.
UniProt P54830, 173-541: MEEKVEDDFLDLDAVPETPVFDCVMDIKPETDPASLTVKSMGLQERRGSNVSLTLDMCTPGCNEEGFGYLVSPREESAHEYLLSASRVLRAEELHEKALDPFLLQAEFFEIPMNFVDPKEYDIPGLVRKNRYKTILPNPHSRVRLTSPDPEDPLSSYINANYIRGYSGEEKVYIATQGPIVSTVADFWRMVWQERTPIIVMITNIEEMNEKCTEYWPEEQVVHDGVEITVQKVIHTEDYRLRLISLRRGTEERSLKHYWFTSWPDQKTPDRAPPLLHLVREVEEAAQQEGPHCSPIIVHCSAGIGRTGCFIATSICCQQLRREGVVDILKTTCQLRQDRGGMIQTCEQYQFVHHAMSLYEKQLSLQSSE
UniProt P54830, whole entry: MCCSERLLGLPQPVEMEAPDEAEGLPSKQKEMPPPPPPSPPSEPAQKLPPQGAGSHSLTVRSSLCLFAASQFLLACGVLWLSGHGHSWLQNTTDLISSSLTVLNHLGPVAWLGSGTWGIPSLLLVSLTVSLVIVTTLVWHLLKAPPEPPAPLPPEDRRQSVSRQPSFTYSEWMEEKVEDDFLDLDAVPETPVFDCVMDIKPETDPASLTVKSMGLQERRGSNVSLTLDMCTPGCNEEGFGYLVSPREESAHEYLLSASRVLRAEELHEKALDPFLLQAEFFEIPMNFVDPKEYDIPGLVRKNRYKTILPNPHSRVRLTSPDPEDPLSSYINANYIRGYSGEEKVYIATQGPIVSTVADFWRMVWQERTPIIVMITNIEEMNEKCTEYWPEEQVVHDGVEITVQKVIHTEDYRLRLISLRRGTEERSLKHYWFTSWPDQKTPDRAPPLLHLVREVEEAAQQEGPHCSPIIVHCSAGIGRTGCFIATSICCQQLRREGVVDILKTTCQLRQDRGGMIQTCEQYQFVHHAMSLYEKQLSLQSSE

How the values were obtained:
[1] = molecular target: T1, STEP (Mus musculus, UniProt P54830); experiment: Preliminary studies of STEP inhibition in neuronal cultures and cortical tissue after i.p. injection; assay type: in vivo; details: commercial sample, i.p. injections in WT mice
[2] = molecular target: T1, STEP; experiment: HTS hit dose-response inhibition of STEP (pNPP); details: for IC50: commercial library samples, activity later ascribed to S8 contaminant
[3] = molecular target: T1, STEP; experiment: pNPP assay of HPLC fractions of commercial Compound 3; assay type: biochemical; details: fraction 7, 100 nM STEP
Description: Figure 1 Compound 3 fractionation and initial characterization. (A) Commercially purchased Compound 3 was dissolved in methanol at 10 mg/mL, and 300 µL portions were injected onto a Zorbax (Agilent) 5 µm 300SB-C18 column (0.94×25 cm, 3 mL/min 75% methanol/25% pH 4.0 0.1 M ammonium acetate). Thirty-five fractions (3 mL each) were collected, evaporated, and reconstituted in 100 µL of DMSO. […] DMSO alone was used as a control. Shown in the insert is a representative chromatogram (UV absorbance detection, 350 nm). Peaks A, B, and C indicate early unretained material, Compound 3, and the unknown compound. (B) Structure of S8, the benzopentathiepin core, and 8-(trifluoromethyl)-1,2,3,4,5-benzopentathiepin-6-amine hydrochloride (known as TC-2153). (C and D) Dose–response curves for S8 and TC-2153. (C) The IC50 for S8 was determined to be 17.2±0.4 nM (mean ± s.e.m., n = 4).

| Compound | IC50 [2] [µM] | also measured |
| --- | --- | --- |
| COc1ccc(-c2cc(-c3ccccc3)nc3sc(C(=O)NC4CC4)c(N)c23)cc1 | 2.2 | Inhibition of STEP activity in neuronal cultures and cortical tissue [1]: potent inhibition of STEP activity; Inhibitory activity towards STEP after resynthesis ([2]; resynthesized compounds, pNPP assay): greatly diminished activity |
| COc1ccc([S+]([O-])Cc2c(C(=O)c3ccccc3)oc3ccccc23)cc1 (centres unmarked) | 8.7 |  |
| CCS(=O)(=O)c1ccc(-c2csc(-c3ccccn3)n2)c(Cl)c1Cl | 9.7 | Inhibitory activity of HPLC-purified major peak against STEP [3]: no inhibitory activity against STEP |
| CC(C)N1CCc2c(sc(N)c2C#N)C1 | 0.98 |  |
| c1ccc(CCNc2nnns2)cc1 | 1.4 |  |
| CCCCn1cnc2sc3c(c2c1=N)CCCC3 | 2.9 |  |
| CCOC(=O)c1cc(-c2ccccc2)sc1NC(=O)c1ccc(Br)cc1 | 4.9 |  |
| Cc1csc(CCc2ccccc2)n1 | 4.1 |  |
